Earlier results as cited in article PMC7961786, “Magic Peptide: Unique Properties of the LRR11 Peptide in the Activation of Leukotriene Synthesis in Human Neutrophils” (International Journal of Molecular Sciences, 2021).

Test system: LTB4 receptor, BLT1; neutrophil migration
Details: through interaction with BLT1; ref [57]; cited from earlier work
Source text: RAGE is shown to bind molecules, known as damage-associated molecular patterns (DAMPs), released by cells that die or are under conditions of inflammation.

Soluble RAGE: Soluble RAGE
LTB4-dependent neutrophil migration: inhibited LTB4-dependent neutrophil migration
